Test results reported in PubChem BioAssay AID504770 (ICCB-Longwood Screening Facility, Harvard Medical School, 2011).
Only a part is listed here, and it is no random draw. Some tests of the compounds listed are not included; inactive here does not mean inactive elsewhere. Calls of active or inactive are those of the source. Rule as the data show it: active = z-score below about -2 (passing the limit was not always enough); inactive = the rest.

Assay: PubChem AID 504770
Details: E. coli YBA685 rctB-dependent plasmid, OD600 growth, 3 h; active compounds read low

| SMILES | z-score |
| --- | --- |
| COc1ccc(OC)c(C=C(C#N)C#N)c1 | inactive: -1.25 |
| CN(C)c1ccc(C(=O)NCC2(N(C)C)CCCCC2)cc1 | inactive: -0.8 |
| O=C(NCC1(N2CCOCC2)CCCCC1)c1cnc(Cl)c(Cl)c1 | inactive: 0.05 |
| O=C(NCC1(N2CCCCC2)CCCCC1)c1ccc2c(c1)OCCO2 | inactive: -0.1 |
| CN1C2CCC1CC(OC(=O)C(O)(c1ccccc1)c1ccccc1)C2 (stereo not drawn) | inactive: 0.05 |
| O=C(OC1CN2CCC1CC2)C(CO)(c1ccccc1)c1ccccc1 (stereo not drawn) | inactive: -1.2 |
| N#CC(C#N)=Cc1ccccc1 | inactive: -0.95 |
| CN(C)C1(CNC(=O)c2ccncc2)CCCCC1 | inactive: 0.1 |
